From patent US20250099448A1, “HETEROCYCLIC COMPOUNDS” (Hoffmann-La Roche Inc., priority 2022, published 2025)

Protein sequences, listed by entry. Tags and fused reporters are not part of them.
UniProt Q99685, whole entry: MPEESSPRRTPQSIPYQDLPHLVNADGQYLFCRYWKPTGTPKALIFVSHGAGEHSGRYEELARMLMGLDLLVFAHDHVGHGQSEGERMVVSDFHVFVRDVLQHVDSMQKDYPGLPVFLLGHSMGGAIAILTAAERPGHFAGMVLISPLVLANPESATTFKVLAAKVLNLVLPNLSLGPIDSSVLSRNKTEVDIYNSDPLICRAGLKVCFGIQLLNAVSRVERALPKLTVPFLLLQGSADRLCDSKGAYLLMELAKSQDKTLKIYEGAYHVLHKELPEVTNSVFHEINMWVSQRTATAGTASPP

Molecular target: MAGL protein (Homo sapiens, UniProt Q99685)
Experiment: 2-AG assay: MAGL inhibitory activity by hydrolysis of 2-arachidonoylglycerol to arachidonic acid, followed by mass spectrometry
Conditions: read-out: IC50 MAGL, 8 μM 2-arachidonoylglycerol, 15 min preincubation, 30 min reaction at RT, RapidFire MS readout
Experimental: Compounds of formula (I) were profiled for MAGL inhibitory activity by determining the enzymatic activity by following the hydrolysis of the natural substrate 2-arachidonoylglycerol (2-AG) resulting in arachidonic acid, which can be followed by mass spectrometry. This assay is hereinafter abbreviated “2-AG assay”. The 2-AG assay was carried out in 384 well polypropylene assay plates. Compound dilutions were made in 100% DMSO in a polypropylene plate in 3-fold dilution steps to give a final concentration range in the assay from 12.5 μM to […]. Compound dilutions were added to MAGL protein in assay buffer (50 mM TRIS, 1 mM EDTA, 0.01% (v/v) Tween-20, 2.5% (v/v) DMSO). After shaking, the plate was incubated for 15 min at RT. To start the reaction, 2-arachidonoylglycerol in assay buffer was added. The final concentrations in the assay was […] for MAGL protein and 8 μM 2-arachidonoylglyerol. After shaking and 30 min incubation at RT, the reaction was quenched by the addition of two assay volumes of acetonitrile containing 4 μM of d8-arachidonic acid. The amount of arachidonic acid formed was traced by an online SPE system (Agilent Rapidfire) coupled to a triple quadrupole mass spectrometer. A C18 SPE cartridge (Agilent G9205A) was used in an acetonitrile/water liquid setup. The mass spectrometer was operated in negative electrospray mode following the mass transitions 303.1→259.1 for arachidonic acid and 311.1→267.0 for d8-arachidonic acid. The activity of the compounds was calculated based on the ratio of intensities [arachidonic acid/d8-arachidonic acid].

**Q.** With `O=C(N1CC2(CC(Cc3cccc(S(=O)(=O)C(F)(F)F)c3)C2)C1)N1CC2(CC(c3nnc(C4(O)CC4)[nH]3)C2)C1` as the molecule, how does the IC50 read?
**A.** 0.05 nM

**Q.** Which IC50 does the source give for `CC(C)(C)Cn1nncc1-c1ccc(C2CN(C(=O)N3CC4(CC(c5nc(C6CC6)n[nH]5)C4)C3)C2)cc1` here?
**A.** 0.18 nM

**Q.** For `O=C(N1CC2(CC(c3nc(C4CC4)n[nH]3)C2)C1)N1CC2(CN(Cc3snnc3C3CC3)C2)C1`, which IC50 is on record?
**A.** 111 nM

**Q.** For `O=C(N1CC2(CC(Cn3cc(C(F)(F)F)nn3)C2)C1)N1CC2(CC(c3nc(C4CC4)n[nH]3)C2)C1`, which IC50 is on record?
**A.** 42.2 nM

**Q.** `CS(=O)(=O)c1ccc(CN2CC3(C2)CN(C(=O)N2CC4(CC(c5nnc(C6CC6)[nH]5)C4)C2)C3)cc1` was tested. Which IC50 did it give?
**A.** 78.8 nM

**Q.** Which IC50 does the source give for `CC(C)(C)Cn1nncc1-c1ccc(C2CN(C(=O)N3CC4(CC(c5nc(C6(O)CC6)n[nH]5)C4)C3)C2)cc1` here?
**A.** 0.3 nM

**Q.** With `O=C(N1CC2(CC(Cn3ncc(C(F)(F)F)n3)C2)C1)N1CC2(CC(c3nc(C4(F)CC4)n[nH]3)C2)C1` as the molecule, how does the IC50 read?
**A.** 0.85 nM

**Q.** With `O=C(N1CC2(CC(Cc3cnn(CC(F)(F)F)n3)C2)C1)N1CC2(CC(c3nc(C4CC4)n[nH]3)C2)C1` as the molecule, how does the IC50 read?
**A.** 1.21 nM

**Q.** For `O=C(N1CC(c2ccc(N3CC(C(F)(F)F)C3)cn2)C1)N1CC2(CC(c3nnc(C4CC4)[nH]3)C2)C1`, which IC50 is on record?
**A.** 10.7 nM

**Q.** For `O=C(N1CC2(CC(c3nc(C4CC4)n[nH]3)C2)C1)N1CC2(CN(Cc3snnc3C3CCC3)C2)C1`, which IC50 is on record?
**A.** 3.61 nM

**Q.** For `Cn1nc(CC2CC3(C2)CN(C(=O)N2CC4(CC(c5nc(C6CC6)n[nH]5)C4)C2)C3)c(C(F)(F)F)n1`, which IC50 is on record?
**A.** 0.26 nM

**Q.** With `CS(=O)(=O)c1ccccc1CN1CC2(C1)CN(C(=O)N1CC3(CC(c4nnc(C5CC5)[nH]4)C3)C1)C2` as the molecule, how does the IC50 read?
**A.** 34.3 nM

**Q.** With `O=C(N1CC2(CC(c3nc(C4CC4)n[nH]3)C2)C1)N1CC2(CN(Cc3cn(CC(F)(F)F)nn3)C2)C1` as the molecule, how does the IC50 read?
**A.** 735 nM

**Q.** `O=C(N1CC2(CC(Cc3cn(CC(F)(F)F)nn3)C2)C1)N1CC2(CC(c3nc(C4CC4)n[nH]3)C2)C1` was tested. Which IC50 did it give?
**A.** 2.77 nM

**Q.** For `O=C(N1CC2(CC(c3nc(C4CC4)n[nH]3)C2)C1)N1CC2(CN(Cc3cnn(CC(F)(F)F)n3)C2)C1`, which IC50 is on record?
**A.** 96.8 nM

**Q.** `O=C(N1CC2(CC(c3nnc(C4CC4)[nH]3)C2)C1)N1CC2(C1)CN(S(=O)(=O)c1cccc(C(F)(F)F)c1)C2` was tested. Which IC50 did it give?
**A.** 4.97 nM

**Q.** With `O=C(N1CC2(CC(Cn3ncc(C(F)(F)F)n3)C2)C1)N1CC2(CC(c3nc(C4CC4)n[nH]3)C2)C1` as the molecule, how does the IC50 read?
**A.** 0.29 nM

**Q.** With `O=C(N1CC2(CC(Cn3cc(C(F)(F)F)nn3)C2)C1)N1CC2(CC(c3nc(C4CC(F)(F)C4)n[nH]3)C2)C1` as the molecule, how does the IC50 read?
**A.** 707 nM

**Q.** Which IC50 does the source give for `CS(=O)(=O)c1cc(Cl)ccc1N1CCC2(CC1)CN(C(=O)N1CC3(CC(c4nnc(C5CC5)[nH]4)C3)C1)C2` here?
**A.** 1.41 nM

**Q.** With `Cn1nnc(CN2CC3(C2)CN(C(=O)N2CC4(CC(c5nc(C6CC6)n[nH]5)C4)C2)C3)c1C(F)(F)F` as the molecule, how does the IC50 read?
**A.** 39.6 nM

Same assay, conditions: read-out: IC50 MAGL, 8 μM 2-arachidonoylglycerol, 15 min preincubation, 30 min reaction at RT, RapidFire MS readout, tested form: tosylate

**Q.** With `O=C(N1CC(c2ccc(C3CC4(COC4)C3)nc2)C1)N1CC2(CC(c3nnc(C4CC4)[nH]3)C2)C1` as the molecule, how does the IC50 read?
**A.** 4120 nM
